Ab-14 light chain CDR variants: yeast mating affinities

Target peptide (SARS-CoV-2 spike, HR2 region): PDVDLGDISGINAS

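Phage display of a naive human antibody library on the peptide gave the parent. This is the validation round: designs drawn from the data on random variants, tested in the same kind of assay. Their group label is 14L_GP_Gen (GP: Gaussian process model; Gen: genetic algorithm; a sequence that several methods proposed may carry one label only). The assay is AlphaSeq: two haploid yeast populations carry antibody and antigen on their surface. Mating (16 h, 30 °C) was followed by selection of diploids and sequencing of their barcodes. A regression on co-assayed BCL2-family reference pairs converts the normalised counts of each replicate to an apparent Kd. There are six technical replicates.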

Each scFv is VH, the linker GGGGSGGGGSGGGGS, VL, as in the parent Ab-14, and differs from it in the CDRs of the light chain only.
VH: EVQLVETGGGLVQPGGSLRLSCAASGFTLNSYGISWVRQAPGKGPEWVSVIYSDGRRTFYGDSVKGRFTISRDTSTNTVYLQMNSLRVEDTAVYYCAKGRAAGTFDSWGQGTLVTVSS
VL: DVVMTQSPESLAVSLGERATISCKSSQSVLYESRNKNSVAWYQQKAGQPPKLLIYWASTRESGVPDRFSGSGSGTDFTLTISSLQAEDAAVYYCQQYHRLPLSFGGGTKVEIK

Each variant is given by its three light chain CDRs, as the data file delimits them; those of the parent are KSSQSVLYESRNKNSVA, WASTRES, QQYHRLPLS.
Numbers give log10(Kd / nM), so 0 is 1 nM and 3 is 1 µM. Smaller is tighter.
"ND" means that the variant was in the library but no mating with the target was seen in that replicate; the authors take this as a sign of poor binding, and no number exists.
A sequence measured in both rounds can read differently, since the two assays cover different ranges.
The authors' rule: three or more of the six replicates give a measured affinity, fewer mean a poor binder.
As a blank, each scFv also met three strains without target: over all light chain designs, 4% of these pairings were detected, typically at 2.64 and seldom below 1.59. The control count says in how many pairings with the empty strains this scFv gave a signal, with their mean in brackets.
Of ten entries with the parent sequence, four were seen in most replicates (averages 0.34 to 2.37), three in one and three in none, so single entries are noisy.

CDR-L1,CDR-L2,CDR-L3,log10 Kd (nM) by replicate,control signals
KVQQSVWYESRNKNSVA,NASTRES,QQYHRLPLS,0.09 0.18 0.27 0.24 -0.12 0.23,1 of 18 (2.83)
KLQQSQLYESRNKNSVA,HASTRCS,QQYHRLPLS,0.25 0.49 0.43 0.17 0.32 0.32,0 of 18
KLSQSDLYESRNKNQVA,EASTRES,QQYHRLPLS,0.13 0.15 0.13 -0.21 0.06 0.17,0 of 18
KLSFSVLYESRNKNSVA,NASTRES,QQYHRLPLS,-0.26 -0.36 -0.41 -0.44 -0.34 -0.15,3 of 18 (2.91)
KMSQSWLYESRNSNSVA,NASQRES,QQYHRLPLS,0.40 0.28 0.18 0.02 0.71 0.22,1 of 18 (1.99)
KLSQSVEYESRNKNNVA,NASQRES,QQYHRLPLS,-0.29 -0.56 -0.44 -0.64 -0.45 -0.46,0 of 18
KLSNSVLYESRNKNSVA,EASTRES,QQYHRLPLS,-0.05 -0.19 -0.23 -0.21 -0.65 0.02,0 of 18
KVSQSVLYESRNKNSVA,NASTRES,QQYHRLPLG,-0.19 -0.29 -0.20 -0.45 -0.25 -0.39,1 of 18 (3.46)
KFEQSYLYESRNKNSVA,NASTRES,QQYHRLPLS,-0.21 -0.34 -0.25 -0.33 -0.17 -0.01,1 of 18 (2.86)
KFSQSVLYESRNKNSVA,EASTRMS,QQYHRLPLS,ND ND ND ND ND ND,1 of 18 (1.68)
KVSQSDLYESRNKNSVA,DASTRES,QQYHRLPLS,-0.14 -0.13 -0.20 -0.18 -0.14 -0.06,1 of 18 (2.10)
HLSQSVLYESRNKNSVA,QASTRES,QQYHRLPLS,0.03 -0.09 -0.21 -0.29 -0.26 -0.03,0 of 18
KLSQSFLYESRNKNSVA,AASTRES,QQYHRLPLS,0.00 -0.05 -0.15 0.07 0.03 0.08,1 of 18 (3.50)
KLEQSVLYESRNKNSVA,NASQREQ,QQYHRLPLS,-0.22 -0.26 -0.43 -0.44 -0.38 -0.19,2 of 18 (2.74)
KFSQLVLYESRNKNSVA,NASTRES,QQYHRLPLS,0.00 0.07 -0.25 -0.03 -0.22 0.02,1 of 18 (2.45)
KLSQSVLYESRNKNSVA,NASTRLE,QQYHRLPLS,-0.03 0.01 -0.04 -0.20 -0.11 -0.21,1 of 18 (2.78)
KHSQSVLYESRNKNNVA,EASTRES,QQYHRLPLS,0.46 0.33 0.36 0.05 0.34 0.66,0 of 18
KCSQSWLYESRNKNSVA,NASQRES,QQYHRLPLS,-0.02 -0.08 -0.22 -0.39 -0.20 -0.08,2 of 18 (2.85)
NLSQSVLYESRNKNSVA,NASTRES,QQYHRLPLS,0.61 0.36 -0.01 0.39 -0.02 0.52,1 of 18 (2.87)
KLQQSELYESRNKNSVA,NASTRED,QQYHRLPLS,-0.01 -0.11 0.03 -0.11 -0.20 0.32,2 of 18 (2.94)
KLQQSVPYESRNKNSVA,EASTRCS,QQYHRLPLS,-0.07 -0.13 0.05 -0.33 -0.06 0.05,0 of 18
KLSQSELYESRNKNSVA,NASTRLS,QQYHRLPLS,-0.75 -0.81 -0.86 -0.67 -0.33 -0.48,1 of 18 (1.46)
ALSQSVLYESRNKNSVA,HASTRES,QQYHRLPLS,-0.05 0.11 -0.09 -0.04 -0.10 -0.07,0 of 18
KYSQSYLYESRNKNSVA,NASQRES,QQYHRLPLS,0.42 0.22 0.06 0.07 0.05 0.39,1 of 18 (2.56)
KISQSVWYESRNKNSVA,EASTRES,QQYHRLPLS,-0.48 -0.69 -0.58 -0.77 -0.74 -0.65,2 of 18 (2.36)
KLSQSDLYESRNKNSVA,EASTREV,QQYHRLPLS,-0.01 0.16 0.21 -0.26 0.27 0.07,1 of 18 (2.44)
KLMQSWLYESRNKNSVA,NASTRMS,QQYHRLPLS,0.58 0.23 0.00 -0.14 0.21 0.44,0 of 18
KLMQSVLYESRNKNSVA,HASTRES,QQYHRLPLS,0.40 0.23 0.09 -0.01 0.20 0.23,1 of 18 (3.41)
KVSQSELYESRNKNSVA,NASKRES,QQYHRLPLS,0.42 0.21 -0.04 0.20 -0.11 0.01,0 of 18
KLQQSELYESRNKNSVA,NASKRMS,QQYHRLPLS,0.26 0.66 0.72 0.37 0.42 0.47,0 of 18
KLSGSWLYESRNKNSVA,NASQRES,QQYHRLPLS,0.23 0.08 -0.20 -0.28 -0.19 0.05,1 of 18 (2.37)
KLSQSDLYESRNKNSVA,NASTRED,QQYHRLPLS,-0.07 -0.22 -0.08 -0.34 -0.31 -0.12,0 of 18
KLEMSQLYESRNKNSVA,NASQRES,QQYHRLPLS,-0.20 -0.32 -0.30 -0.33 -0.61 -0.29,0 of 18
KLPQSVLYEERNKNSVA,NASTRES,QQYHRLPLS,0.18 -0.25 -0.26 -0.35 -0.24 -0.04,1 of 18 (1.42)
KLSQLVLYESRNKNSVA,DASTRES,QQYHRLPLS,-0.01 0.07 -0.27 -0.27 -0.01 0.33,1 of 18 (2.24)
KLQQSVLYESRNKNSVA,DASTRSS,QQYHRLPLS,-0.41 -0.49 -0.55 -0.64 -0.67 -0.41,0 of 18
KLSQSQLYESRNKNSVA,NASQRES,QQYHRLPLS,0.07 0.00 0.02 -0.17 -0.04 0.12,1 of 18 (3.10)
KVSQSHLYESRNKNSVA,NASYRES,QQYHRLPLS,0.26 0.07 0.75 0.19 -0.01 0.53,1 of 18 (2.44)
KFSQSVLYEDRNKNSVA,NASTRLS,QQYHRLPLS,0.00 -0.16 -0.14 -0.24 -0.34 -0.15,2 of 18 (2.56)
QLSQSVLYESRNKNSVA,EASTRES,QQYHRLPLS,-0.24 -0.21 -0.31 -0.50 -0.35 -0.12,2 of 18 (2.01)

The last 2 entries again:

CDR-L1	CDR-L2	CDR-L3	log10 Kd (nM) by replicate	control signals
KFSQSVLYEDRNKNSVA	NASTRLS	QQYHRLPLS	0.00 -0.16 -0.14 -0.24 -0.34 -0.15	2 of 18 (2.56)
QLSQSVLYESRNKNSVA	EASTRES	QQYHRLPLS	-0.24 -0.21 -0.31 -0.50 -0.35 -0.12	2 of 18 (2.01)

From the AlphaSeq antibody data of Li et al. 2023 (doi:10.1038/s41467-023-39022-2), copy in the FLAb collection.